Yeast mating assay 1: variants of the scFv Ab-14

From the AlphaSeq antibody data of Engelhart et al. 2022 (doi:10.1038/s41597-022-01779-4), copy in the FLAb collection.

Target: peptide PDVDLGDISGINAS, taken from heptad repeat 2 (HR2) of SARS-CoV-2 spike.

Parent: Ab-14, a human scFv built as VH, a (GGGGS)3 linker, VL. Only the CDRs of the light chain vary.
VH: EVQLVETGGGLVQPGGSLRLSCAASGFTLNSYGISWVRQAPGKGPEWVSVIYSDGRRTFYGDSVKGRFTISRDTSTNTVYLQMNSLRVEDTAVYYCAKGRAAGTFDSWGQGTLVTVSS
VL: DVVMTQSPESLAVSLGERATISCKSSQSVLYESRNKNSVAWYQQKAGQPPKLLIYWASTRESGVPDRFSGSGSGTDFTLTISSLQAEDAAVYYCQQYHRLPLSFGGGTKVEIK

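The parent was found by panning a naive human phage display library on the peptide. The library (AAYL50) carries one to three amino acid substitutions per variant, with no insertions or deletions. The scFvs were displayed on barcoded MATa yeast, the peptide on MATalpha yeast. Pairs that bind mate more often; barcode pairs of the diploids are counted by sequencing. The ratio of observed to expected reads was calibrated, replicate by replicate, on BCL2-family standards whose Kd was known from biolayer interferometry. Mating was done three times.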

Positions count from residue 1 of the parent VL; S28W puts W in place of S. The Kd shown is the geometric mean over detected replicates; a lower Kd is a better binder. An entry "not detected" has no value in the source: the pair was not observed among the diploids in any replicate. This suggests poor binding but is not conclusive.

| apparent Kd | replicates with signal | empty controls | changes |
|---|---|---|---|
| not detected | 0 of 3 | 4 of 9 | S28W S38K P101C |
| 240 nM | 3 of 3 | 3 of 9 | K24G K36M E61M |
| 21 nM | 3 of 3 | 1 of 9 | E61G R99K L100F |
| 110 nM | 1 of 3 | 0 of 9 | R34C A57E T59C |
| 7.7 nM | 3 of 3 | 3 of 9 | N37D Q95C S103G |
| 8.8 µM | 2 of 3 | 1 of 9 | S25R S28M T59A |
| 120 nM | 3 of 3 | 3 of 9 | R60I S62P Q95M |
| 120 nM | 3 of 3 | 0 of 9 | V39I T59C H98R |
| 3.4 µM | 1 of 3 | 0 of 9 | S25P Y97S H98G |
| not detected | 0 of 3 | 1 of 9 | K24P S38M E61K |
| not detected | 0 of 3 | 0 of 9 | E32W Q95G Q96L |
| 490 nM | 3 of 3 | 0 of 9 | S28A V29P E32R |
| 24 nM | 3 of 3 | 0 of 9 | S28D A57D |
| not detected | 0 of 3 | 1 of 9 | V39G A57F Q96P |
| not detected | 0 of 3 | 2 of 9 | S38R P101W |
| 270 nM | 2 of 3 | 1 of 9 | S28A A57G Y97W |
| not detected | 0 of 3 | 2 of 9 | S38I A40Q S103G |
| 110 µM | 2 of 3 | 5 of 9 | S58K S103E |
| 2.6 nM | 3 of 3 | 0 of 9 | L30A Y31G E61C |
| 950 nM | 2 of 3 | 0 of 9 | S28W S33T |
| not detected | 0 of 3 | 0 of 9 | S26L Y31M L102N |
| not detected | 0 of 3 | 3 of 9 | K36W R60V S103W |
| 19 µM | 2 of 3 | 2 of 9 | S33C E61L H98V |
| not detected | 0 of 3 | 1 of 9 | S25Y P101H L102G |
| 10 µM | 3 of 3 | 1 of 9 | K24R Q95I H98K |
| 390 nM | 3 of 3 | 0 of 9 | Q27Y Q95T R99H |
| 4.2 nM | 3 of 3 | 4 of 9 | V29D S38H W56T |
| 27 µM | 1 of 3 | 0 of 9 | K24D K36R Q95K |
| 32 nM | 3 of 3 | 0 of 9 | Q96A L100E P101L |
| not detected | 0 of 3 | 0 of 9 | Y31F S38T A40I |
| not detected | 0 of 3 | 0 of 9 | S28K Y31S N37L |
| 6.8 nM | 3 of 3 | 1 of 9 | S33G H98T |
| 38 nM | 3 of 3 | 0 of 9 | V39L Q96L |
| not detected | 0 of 3 | 0 of 9 | S26V N37F T59F |
| not detected | 0 of 3 | 0 of 9 | E32I T59C H98S |
| not detected | 0 of 3 | 0 of 9 | A40K Y97I L102N |
| 12 nM | 3 of 3 | 2 of 9 | N35Q S62V Y97G |
| 320 nM | 3 of 3 | 3 of 9 | S25F A57N P101E |
| 4.0 nM | 3 of 3 | 0 of 9 | K36D T59H R99V |
| 68 µM | 1 of 3 | 1 of 9 | K36F S38H L102M |
| 4.6 µM | 1 of 3 | 0 of 9 | K24P K36S |
| 28 nM | 3 of 3 | 2 of 9 | S25E Q95G R99G |
| 5.9 µM | 1 of 3 | 1 of 9 | E32H H98M L100V |
| 13 nM | 3 of 3 | 2 of 9 | K24S L30S E32A |
| 1.9 mM | 1 of 3 | 5 of 9 | A57W T59E E61H |
| 370 nM | 3 of 3 | 1 of 9 | S33N R99V S103I |
| 8.2 µM | 1 of 3 | 3 of 9 | K24Y Q27Y A57N |
| 130 µM | 3 of 3 | 3 of 9 | Y31F A40M L100P |
| 19 nM | 3 of 3 | 1 of 9 | H98D S103M |
| 180 µM | 1 of 3 | 3 of 9 | E32Y V39F W56I |
| 8.1 nM | 3 of 3 | 7 of 9 | S26A Y31E E61Q |
| 500 nM | 3 of 3 | 3 of 9 | S28C E32Q |
| 16 nM | 3 of 3 | 1 of 9 | K24G R34A L100N |
| not detected | 0 of 3 | 0 of 9 | E32R S62G R99T |
| not detected | 0 of 3 | 0 of 9 | K24Q S33I A57D |
| 480 µM | 1 of 3 | 0 of 9 | S25K R60A S62C |
| 210 nM | 1 of 3 | 1 of 9 | L30Y K36V L102A |
| 650 µM | 1 of 3 | 4 of 9 | Q27P K36T S58P |
| 47 nM | 3 of 3 | 3 of 9 | Q27R T59L L102W |
| 33 nM | 3 of 3 | 4 of 9 | L30E Y31V Y97L |
| 35 nM | 3 of 3 | 3 of 9 | S26P V29T S33Q |
| not detected | 0 of 3 | 0 of 9 | A40I R60I P101S |
| 290 nM | 2 of 3 | 0 of 9 | L30R Q96A |
| 7.7 nM | 3 of 3 | 3 of 9 | S33P H98V R99I |
| 2.9 nM | 3 of 3 | 2 of 9 | Y31F H98N |
| 88 nM | 3 of 3 | 3 of 9 | S25Y Q27P A57Q |
| not detected | 0 of 3 | 0 of 9 | V39R L100M L102F |
| 22 nM | 3 of 3 | 0 of 9 | S58T E61H |
| 81 nM | 3 of 3 | 6 of 9 | Q96D Y97R S103G |
| not detected | 0 of 3 | 0 of 9 | R60D E61Q |
| 58 nM | 3 of 3 | 0 of 9 | S38P E61T |
| 1.0 µM | 1 of 3 | 4 of 9 | V29A P101D |

10 of these entries, quoted again:

changes,apparent Kd,replicates with signal,empty controls
S25P Y97S H98G,3.4 µM,1 of 3,0 of 9
S38I A40Q S103G,not detected,0 of 3,2 of 9
N35Q S62V Y97G,12 nM,3 of 3,2 of 9
S33C E61L H98V,19 µM,2 of 3,2 of 9
K36F S38H L102M,68 µM,1 of 3,1 of 9
N37D Q95C S103G,7.7 nM,3 of 3,3 of 9
S25R S28M T59A,8.8 µM,2 of 3,1 of 9
K36D T59H R99V,4.0 nM,3 of 3,0 of 9
S38R P101W,not detected,0 of 3,2 of 9
V29D S38H W56T,4.2 nM,3 of 3,4 of 9

Background: pairings of library AAYL50 with three empty control strains gave a value in 18% of cases (median 15 µM, 5th percentile 970 nM). Values in that range, when seen in few replicates, are hard to tell from nonspecific mating. Also given: how often the same scFv was detected with the empty control strains.